Like-named read-outs stand apart in the source and are kept apart here.

Amino acid sequences for entries named in this document (tags omitted). Residues count along the entry.
UniProt P08254, 100-477 limits assumed: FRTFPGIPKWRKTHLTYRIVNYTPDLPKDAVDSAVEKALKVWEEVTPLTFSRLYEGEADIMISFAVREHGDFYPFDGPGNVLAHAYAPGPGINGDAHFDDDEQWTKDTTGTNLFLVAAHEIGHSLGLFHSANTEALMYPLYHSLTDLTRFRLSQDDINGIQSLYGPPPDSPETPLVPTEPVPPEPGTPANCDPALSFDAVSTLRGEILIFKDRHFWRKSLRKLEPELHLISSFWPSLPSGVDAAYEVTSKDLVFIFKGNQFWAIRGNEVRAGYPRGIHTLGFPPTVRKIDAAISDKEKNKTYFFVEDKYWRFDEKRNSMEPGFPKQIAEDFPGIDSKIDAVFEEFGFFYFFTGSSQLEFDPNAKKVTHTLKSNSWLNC
UniProt P03956, 100-469 limits assumed: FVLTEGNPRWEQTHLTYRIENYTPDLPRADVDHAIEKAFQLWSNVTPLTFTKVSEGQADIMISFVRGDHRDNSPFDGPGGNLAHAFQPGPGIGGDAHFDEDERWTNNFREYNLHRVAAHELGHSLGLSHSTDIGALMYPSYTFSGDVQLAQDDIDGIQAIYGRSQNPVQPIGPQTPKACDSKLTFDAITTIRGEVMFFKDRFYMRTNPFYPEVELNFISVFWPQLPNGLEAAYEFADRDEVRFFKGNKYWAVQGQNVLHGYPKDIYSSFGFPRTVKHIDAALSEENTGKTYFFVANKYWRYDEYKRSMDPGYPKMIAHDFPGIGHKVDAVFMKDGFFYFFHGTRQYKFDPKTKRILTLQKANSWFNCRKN
UniProt P08253, 110-660 limits assumed: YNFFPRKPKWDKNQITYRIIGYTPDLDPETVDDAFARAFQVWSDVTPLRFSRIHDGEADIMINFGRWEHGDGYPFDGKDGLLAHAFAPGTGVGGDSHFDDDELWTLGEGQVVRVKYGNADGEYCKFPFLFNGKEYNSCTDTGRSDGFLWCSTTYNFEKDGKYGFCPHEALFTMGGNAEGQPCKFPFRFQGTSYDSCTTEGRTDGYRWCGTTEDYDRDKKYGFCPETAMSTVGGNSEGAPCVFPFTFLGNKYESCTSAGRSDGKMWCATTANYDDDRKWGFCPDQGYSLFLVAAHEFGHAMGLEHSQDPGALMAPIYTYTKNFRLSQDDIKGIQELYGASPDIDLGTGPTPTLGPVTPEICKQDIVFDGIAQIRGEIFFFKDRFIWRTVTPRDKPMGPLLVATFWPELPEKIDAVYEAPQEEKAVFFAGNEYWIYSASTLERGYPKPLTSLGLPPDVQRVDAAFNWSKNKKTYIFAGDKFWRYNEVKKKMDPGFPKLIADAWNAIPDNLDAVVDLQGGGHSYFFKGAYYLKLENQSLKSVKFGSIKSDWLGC

Experiment [1] deals with stromelysin (Homo sapiens, UniProt P08254). Briefly: Inhibition of stromelysin-mediated hydrolysis of substance P (HPLC-based assay). The experiment is classed as biochemical.
Experiment [2] addresses collagenase (Homo sapiens, UniProt P03956). Briefly: Inhibition of collagenase cleavage of thioester peptide Ac-Pro-Leu-Gly-S-Leu-Leu-Gly-OC2H5.
The target in experiment [3] is 72 kD Galatinase (gelatinase) (Homo sapiens, UniProt P08253). The experiment is described as follows: Inhibition of gelatinase-mediated cleavage of fluorogenic substrate Dnp-Pro-Leu-Gly-Leu-Trp-Ala-D-ArgNH2. The note with it: read-out: Inhibition of 72 kD Galatinase pH = 7.5 (Ki).
[4] abbreviates: read-out: Inhibition of Stromelysin pH = 7.5 (IC50).
[5] abbreviates: read-out: Inhibition of Collagenase pH = 6.5 (IC50).

As for `CC(C)C[C@H](NC(=O)C(CCCc1ccccc1)N[C@H](CCCCN1C(=O)c2ccccc2C1=O)C(=O)O)C(=O)Nc1ccccc1` (stereo partly drawn), the IC50 turned out to be 0.19 µM in experiment [1] (setting [4]) and 1.4 µM in experiment [2] (setting [5]).
Turning to `CNC(=O)[C@H](CC(C)C)NC(=O)C(CCc1ccccc1)N[C@H](CCCCN1C(=O)c2ccccc2C1=O)C(=O)O` (stereo partly drawn), the 50% inhibitory concentration (IC50) stood at 0.25 µM in experiment [1] (setting [4]) and 0.18 µM in experiment [2] (setting [5]).
For `CC(C)C[C@H](NC(=O)C(CCc1ccccc1)N[C@H](CCCCNC(=O)OCC1c2ccccc2-c2ccccc21)C(=O)O)C(=O)Nc1ccccc1` (stereo partly drawn), the figures for the IC50 in experiment [1] (setting [4]) and in experiment [2] (setting [5]) were 1.4 µM and 1.7 µM, respectively.
Take `CNC(=O)[C@H](CCCCN)NC(=O)C(CCc1ccccc1)N[C@H](CCCCN1C(=O)c2ccccc2C1=O)C(=O)O` (stereo partly drawn): the IC50 worked out at 1.1 µM in experiment [1] (read-out: Inhibition of Stromelysin pH = 7.5 (IC50), tested form: HCl) and 0.36 µM in experiment [2] (read-out: Inhibition of Collagenase pH = 6.5 (IC50), tested form: HCl).
Turning to `CC(C)C[C@H](NC(=O)[C@H](CCc1ccccc1)NC(CCCCc1ccccc1)C(=O)O)C(=O)Nc1ccccc1` (stereo partly drawn), the IC50 in experiment [1] (setting [4]) amounted to 0.5 µM; in experiment [2] (setting [5]), 0.07 µM.
For the compound `CC(C)C[C@H](NC(=O)C(CCc1ccccc1)N[C@H](CCCCN1C(=O)c2ccccc2C1=O)C(=O)O)C(=O)N[C@@H](Cc1ccccc1)C(N)=O` (stereo partly drawn), the figures for the IC50 in experiment [1] (setting [4]) and in experiment [2] (setting [5]) were 0.2 µM and 4 µM, respectively.
Regarding `CC(C)C[C@H](NC(=O)C(CCc1ccccc1)NC(CCCc1ccccc1)C(=O)O)C(=O)Nc1ccccc1` (stereo partly drawn), the Ki in experiment [3] is 2.1 µM. Also, the IC50 in experiment [1] (setting [4]) was found to be 0.78 µM; in experiment [2] (setting [5]) it was 2.6 µM.
